Water solubility values, as collected for the OPERA models

Source: data files of OPERA 2.9 (Mansouri et al.), github.com/kmansouri/OPERA.

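OPERA's authors assembled the values from existing databases and did not measure them anew. A listed value is a point estimate from one report or more. Conditions of the individual experiments are not part of the data. The measured form (salt, isomer or mixture) is not always the one drawn. Unmarked limits or estimates from the upstream databases cannot be ruled out.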

Water solubility is log10 of mol/L, nominally at 25 °C; higher is more soluble.
Cells with "n/a" have no entry in this list.

structure (SMILES)	name	water solubility (log10 mol/L)
CC(C)c1nc(C(=O)O)c(C(=O)O)[nH]1	2-Isopropyl-1H-imidazole-4,5-dicarboxylic acid	-1.792
CCCC(=O)OCCc1ccccc1	2-Phenylethyl butanoate	-2.22
CCCCCCCCCCCCCCCCCC(=O)OCC(CC)CCCC (centres undefined)	2-Ethylhexyl octadecanoate	-6.899
O=C(O)CCCCCCCCCCCCCCC(=O)O	Hexadecanedioic acid	-4.75
CC1(O)[C@H](O)[C@@H](O)C(O)[C@@H](O)[C@@H]1O (some centres not stated)	Mytilitol	-1.655
O=C(CS)OCC(COC(=O)CS)(COC(=O)CS)COC(=O)CS	n/a	-2.795
CCOc1ccc(-c2ccc(C3CCC(CC)CC3)cc2)c(F)c1F (centres undefined)	n/a	-6.847
COC(=O)c1nc(Cl)c(Cl)nc1N	Methyl 3-amino-5,6-dichloropyrazine-2-carboxylate	-4.54
Nc1ccc(NCCO)c([N+](=O)[O-])c1	HC Red 3	-2.191
CC(C)NO	2-Propanamine, N-hydroxy-	0.41
O=S(=O)(Nc1ccc(O)cc1)c1ccccc1	Benzenesulfonamide, N-(4-hydroxyphenyl)-	-2.494
Clc1ccc(Oc2cccc(Cl)c2Cl)cc1Cl	n/a	-6.9
CCCCCC1CCCC(=O)O1 (centres undefined)	6-Pentyltetrahydro-2H-pyran-2-one	-1.629
CCOC(=O)/C(=C\c1cccc([N+](=O)[O-])c1)N=CO	Ethyl 2-formamido (3-nitrophenyl) acrylate	-2.47
Nc1cc(Cl)nc(C(=O)O)c1Cl	Aminopyralid	-1.921
COC(=O)c1cc(N=NC(C(C)=O)C(=O)Nc2ccc3[nH]c(=O)[nH]c3c2)cc(C(=O)OC)c1 (centres undefined)	n/a	-6.378
COc1cc(S(=O)(=O)Nc2ccccc2)c(OC)cc1N	4-Amino-2,5-dimethoxy-N-phenylbenzenesulfonamide	-4.058
CC(CC(=O)O)C(=O)Nc1ccccc1 (centres undefined)	4-Anilino-3-methyl-4-oxobutanoic acid	-1.237
C=CCOP(=O)(OCC=C)c1ccccc1	Diprop-2-en-1-yl phenylphosphonate	-2.9
CC(C)(Sc1cc(C(C)(C)C)c(O)c(C(C)(C)C)c1)Sc1cc(C(C)(C)C)c(O)c(C(C)(C)C)c1	Probucol	-7.092
c1ccc(-c2noc(-c3cccs3)n2)cc1	3-Phenyl-5-(2-thienyl)-1,2,4-oxadiazole	-5.265
CCCCOC(=O)C1C(C(=O)OCCCC)C2(Cl)C(Cl)=C(Cl)C1(Cl)C2(Cl)Cl (centres undefined)	Dibutyl chlorendate	-7.51
CCCC(=O)OCn1cc2c(=O)n(COC(=O)CCC)cnc2n1	n/a	-3.554
CC(C)(C)NC(=O)[C@H]1CC[C@H]2[C@@H]3CC[C@H]4NC(=O)C=C[C@]4(C)[C@H]3CC[C@]12C	n/a	-5.275
Cc1ccc(NC(=O)Nc2ccc(Cc3ccc(NC(=O)Nc4ccc(C)cc4)cc3)cc2)cc1	n/a	-7.713
COc1nc(OC)nc(-c2c(O)n(S(=O)(=O)C(F)F)c3c(F)cccc23)n1	n/a	-6.209
O=C(c1ccccc1)c1ccc(O)cc1	4-Hydroxybenzophenone	-3.166
C=CC(C)(C#CC1(O)C(C)=C2OC(C)OC2CC1(C)C)OC(C)OCC (centres undefined)	n/a	-2.607
CCC(C(=O)O)c1ccc(N2C(=O)c3ccccc3C2=O)cc1 (centres undefined)	n/a	-4.603
O=C1NC(=O)c2ccc3c4cccc5cccc(c6ccc1c2c63)c54	Perylene-3,4-dicarboximide	-6.016
CC[C@@H]1CCN[C@H](C(=O)N[C@@H]([C@H]2O[C@H](SC)[C@H](O)[C@@H](O)[C@H]2O)[C@H](C)Cl)C1	Pirlimycin	-0.77
CCCCCCCCCc1cc(C(C)(C)C)c(O)c(C(C)(C)C)c1	Phenol, 2,6-bis(1,1-dimethylethyl)-4-nonyl-	-5.946
C=C(C)C(=O)OC1CCC(C(C)(C)C)CC1 (centres undefined)	4-(1,1-Dimethylethyl)cyclohexyl methacrylate	-6.749
CCCS(=O)(=O)Nc1ccc(F)c(C(=O)c2c[nH]c3ncc(Br)cc23)c1F	n/a	-3.839
CCCC/C=C\CCCCCCOC(C)=O	cis-7-Dodecenyl acetate	-5.6
C/C=C/C(=O)C(C)CC (stereo partly drawn)	(E)-5-Methyl-2-hepten-4-one	-1.621
CN(C)C(=O)Nc1ccc(Cc2ccc(NC(=O)N(C)C)cc2)cc1	Urea, N,N''-(methylenedi-4,1-phenylene)bis[N',N'-dimethyl-	-3.879
CC(C)(C)CC(C)(C)c1ccc(O)c(-n2nc3ccccc3n2)c1	Octrizole	-6.285
O=C(O)Cc1c[nH]c2ccc(O)cc12	(5-Hydroxy-1H-indol-3-yl)acetic acid	-0.901
CCCCN(CCCC)C(=S)SCSC(=S)N(CCCC)CCCC	4,4'-Methylene bis(dibutyldithiocarbamate)	-6.241
Cc1[nH]c(=O)c(C#N)cc1-c1ccncc1	Milrinone	-3.005
CC(=O)O[C@H]1[C@@H]2OC(C)(C)O[C@@H]2O[C@H]1C1COC(C)(C)O1 (some centres not stated)	n/a	-1.523
Brc1cc(Br)c(Oc2c(Br)cc(Br)c(Br)c2Br)cc1Br	2,2',3,4,4',5',6-Heptabromodiphenyl ether	-8.683
SCCSCCS	2,2'-Sulfanediyldiethanethiol	-2.396
O=C1CCC=CCCC=CCCC1	4,8-Cyclododecadien-1-one	-2.81
COc1ccccc1C=Cc1ccc(-c2ccc(C=Cc3ccccc3OC)cc2)cc1	1,1'-Biphenyl, 4,4'-bis[2-(2-methoxyphenyl)ethenyl]-	-7.145
CC(=O)C(N=Nc1ccc(C(=O)Nc2ccc(C(N)=O)cc2)cc1)C(=O)Nc1ccc2[nH]c(=O)[nH]c2c1 (centres undefined)	C.I. Pigment Yellow 181	-6.673
O[Si](O)(c1ccccc1)c1ccccc1	Diphenylsilanediol	-2.733
C[C@@H]1CC[C@H]2C(C)(C)[C@H]3C[C@@]12CC[C@@]3(C)O	(+)-Cedrol	-4.974
O=C(O)c1cccc2cccc(-c3cccc4cccc(C(=O)O)c34)c12	[1,1'-Binaphthalene]-8,8'-dicarboxylic acid	-2.233

A selection of 3 entries from above:

structure (SMILES)	name	water solubility (log10 mol/L)
CC(=O)C(N=Nc1ccc(C(=O)Nc2ccc(C(N)=O)cc2)cc1)C(=O)Nc1ccc2[nH]c(=O)[nH]c2c1 (centres undefined)	C.I. Pigment Yellow 181	-6.673
CCCC/C=C\CCCCCCOC(C)=O	cis-7-Dodecenyl acetate	-5.6
Cc1ccc(NC(=O)Nc2ccc(Cc3ccc(NC(=O)Nc4ccc(C)cc4)cc3)cc2)cc1	n/a	-7.713